Results: paper PMC9555309, “Improvement of native structure-based peptides as efficient inhibitors of protein-protein interactions of SARS-CoV-2 spike protein and human ACE2” (Frontiers in Molecular Biosciences, 2022)

Target: RBD domain of the SARS-CoV-2 S protein (Severe acute respiratory syndrome coronavirus 2, UniProt P0DTC2)
Test: biochemical
Type: binding

SMILES	Kd (KD Tmeasur. 22°C)	Kd (KD Tmeasur. 25°C)
NC(=O)C[C@H](NC(=O)CNC(=O)[C@H](Cc1ccc(O)cc1)NC(=O)[C@@H](N)CC(=O)O)C(=O)N[C@@H](Cc1ccc(O)cc1)C(=O)N[C@@H](CCC(=O)O)C(=O)O [J3.1, DYGNYE]	0.121 ± 0.037 µM	0.142 ± 0.043 µM
CSCC[C@H](N)C(=O)N[C@@H](Cc1ccc(O)cc1)C(=O)NCC(=O)N[C@@H](CC(N)=O)C(=O)N[C@@H](Cc1c[nH]cn1)C(=O)N[C@@H](CCC(=O)O)C(=O)O [J3.2, MYGNHE]	0.083 ± 0.02 µM	0.098 ± 0.024 µM
CC(C)C[C@H](N)C(=O)N[C@@H](Cc1ccc(O)cc1)C(=O)NCC(=O)N[C@@H](CC(N)=O)C(=O)N[C@@H](Cc1c[nH]cn1)C(=O)N[C@@H](CCC(=O)O)C(=O)O [J3.3, LYGNHE]	0.162 ± 0.023 µM	0.19 ± 0.026 µM
NC(=O)C[C@H](NC(=O)CNC(=O)[C@H](Cc1ccc(O)cc1)NC(=O)[C@@H](N)CC(=O)O)C(=O)N[C@@H](Cc1c[nH]cn1)C(=O)N[C@@H](CCC(=O)O)C(=O)O [J3, DYGNHE]	0.042 ± 0.008 µM	–
